The results in this text go back to patent US8604016B2, “Heterocyclic inhibitors of glutaminase” (Calithera Biosciences Inc., priority 2011, dated 2013).

The chains behind the UniProt entries cited, without tags or fusion partners. Residues count along the entry.
UniProt O94925, 55-669 limits assumed: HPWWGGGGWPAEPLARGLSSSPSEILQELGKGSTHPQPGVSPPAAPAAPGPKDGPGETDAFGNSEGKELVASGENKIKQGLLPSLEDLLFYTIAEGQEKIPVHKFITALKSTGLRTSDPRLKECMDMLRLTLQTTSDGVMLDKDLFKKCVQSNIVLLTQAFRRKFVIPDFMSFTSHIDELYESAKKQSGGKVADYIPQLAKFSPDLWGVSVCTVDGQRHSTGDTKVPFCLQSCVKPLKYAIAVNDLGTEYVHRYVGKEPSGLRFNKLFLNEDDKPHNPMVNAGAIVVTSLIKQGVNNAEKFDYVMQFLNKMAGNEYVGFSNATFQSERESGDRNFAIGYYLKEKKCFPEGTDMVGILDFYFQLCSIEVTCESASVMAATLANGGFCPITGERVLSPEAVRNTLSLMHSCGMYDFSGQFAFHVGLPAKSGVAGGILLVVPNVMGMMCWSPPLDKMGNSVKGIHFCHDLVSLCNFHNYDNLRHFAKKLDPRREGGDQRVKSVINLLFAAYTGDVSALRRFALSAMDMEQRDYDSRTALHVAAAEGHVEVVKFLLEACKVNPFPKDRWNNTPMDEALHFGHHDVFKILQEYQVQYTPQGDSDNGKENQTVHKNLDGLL

pIC50: −log10 of the molar value.

In data set [1] the test system is P493-6 (myc "on") cells. The data set can be described thus: Cell Proliferation Assay (72 hrs, Cell Titer Glo or Viacount FACS). It is filed as cell-based. As to conditions: P493-6, 72 h, read-out: Cell prolif P493 72h IC50. The method, then: P493-6 (myc “on”) cells were maintained in growth media (RPMI-1640, 10% FBS, 2 mM glutamine, 100 units/ml Penicillin and 100 μg/ml streptomycin) at 37° C. with 5% CO2. For compound assay, P493-6 cells were plated in 96-well V-bottom plates on the day of compound addition in 50 μl of growth media at a cell density of 200,000 cells/ml (10,000 cells/well). Compounds were serially diluted in 100% DMSO at 200-times the final concentration. Compounds were diluted 100-fold into growth media and then 50 μl of this mixture was added to cell plates making the final concentration of DMSO 0.5%. Cells were incubated with compound for 72 hrs at 37° C. with 5% CO2 and analyzed for antiproliferative effects either by Cell Titer Glo (Promega) or FACS analysis using the Viacount (Millipore) kit on the Guava instrument.

Data set [2] addresses T1, recombinant form of Glutaminase 1 (GAC) (Homo sapiens, UniProt O94925). As to the kind of experiment: Recombinant Enzyme Assay (GAC coupled to GDH, NADH absorbance, no preincubation). It is filed as biochemical. Here is the method:
(§1) Enzymatic reaction was started with the addition of 50 μL of enzyme solution (50 mM Tris-HCl pH 8.0, 0.2 mM EDTA, 150 mM K2HPO4, 0.1 mg/ml BSA, 1 mM DTT, 10 ppm antifoam, 4 units/ml GDH, 4 mM adenosine diphosphate, and 4 nM GAC) and read in a Molecular Devices M5 plate reader at 20° C. The plate reader was configured to read absorbance (λ=340 nm) in kinetic mode for 15 minutes. Data was recorded as milli-absorbance units per minute and slopes were compared to a control compound and a DMSO-only control on the same plate. Compounds with slopes less than the DMSO control were considered inhibitors and plate variability was assessed using the control compound.

Data set [3] in a line: Caco-2 Permeability Assay (bidirectional). Type of data set: in vitro ADME. To be noted: human, (Papp B→A)/(Papp A→B). From the text:
Caco-2 cells are commonly used in a confluent monolayer on a cell culture insert filter. When cultured in this format and under specific conditions, the cells become differentiated and polarized such that their phenotype, morphologically and functionally resembles the enterocytes lining the small intestine. The cell monolayer provides a physical and biochemical barrier to the passage of small molecules, and is widely used across the pharmaceutical industry as an in vitro model of the human small intestinal mucosa to predict the absorption of orally administered drugs (Hidalgo et al., Gastroenterology, 1989; Artursson, J. Pharm. Sci., 1990). The correlation between the in vitro apparent permeability (P ? app) across Caco-2 monolayers and the in vivo absorption is well established (Artursson et al., Biochem. Biophys. Res. Comm., 1991).
The present assay was used to determine the bidirectional permeability of the compounds of the invention through Caco-2 cell monolayers. Caco-2 cells were grown in confluent monolayers where the media of both the apical (A) and basolateral (B) sides were at pH 7.4. Compounds were dosed at 1 μM in the presence of 200 μM Lucifer Yellow, on the apical side (A→B) or the basolateral side (B→A) for assessment, in duplicate.
The absorption potential of compounds were classified as either Low (P-app <1×10^−6 cm/s) or High (P-app >1×10^−6 cm/s).
(Caco-2 cells form a polarised layer with tight junctions and transporters.)

For data set [4], the target named is T1, recombinant form of Glutaminase 1 (GAC). As to the kind of experiment: Recombinant Enzyme Assay - Time Dependence (60 minutes enzyme/compound preincubation). Type of data set: biochemical. To be noted: read-out: GAC Delta N2 IC50 60 min. The method, then: as §1, with “The enzyme/compound mix was sealed with sealing foil (USA Scientific) and allowed to incubate, with mild agitation, for 60 minutes at 20° C. Enzymatic” for “Enzymatic”, “substrate” for “enzyme”, “DTT, 20 mM L-glutamine, 2 mM NAD^+, and” for “DTT,”, “antifoam)” for “antifoam, 4 units/ml GDH, 4 mM adenosine diphosphate, and 4 nM GAC)”

[5] abbreviates: read-out: GAC Delta N2 IC50 no preinc.
The mark [6] stands for this setting: no preincubation, read-out: GAC Delta N2 IC50 no preinc.

For the compound `Nc1nnc(CCSCCc2nnc(NC(=O)Cc3ccccc3)s2)s1` [Compound 17, N-(5-(2-((2-(5-amino-1,3,4-thiadiazol-2-yl)ethyl)thio)ethyl)-1,3,4-thiadiazol-2-yl)-2-phenylacetamide], the pIC50 in data set [1] is 5.38.

Consider `CC(=O)OCC(=O)Nc1nnc(CCSCCc2nnc(NC(=O)Cc3ccccc3)s2)s1` [Compound 26], for which the pIC50 in data set [2] (setting [5]) was 5.25.

For `O=C(C[C@@H](O)c1ccccc1)Nc1nnc(CCSCCc2nnc(NC(=O)C[C@@H](O)c3ccccc3)s2)s1` [Compound 126], the pIC50 in data set [2] (setting [5]) is 5.24.

Turning to `O=C(Cc1ccccc1CO)Nc1nnc(CCSCCc2nnc(NC(=O)Cc3ccccc3CO)s2)s1` [Compound 181, N,N′-(5,5′-(thiobis(ethane-2,1-diyl))bis(1,3,4-thiadiazole-5,2-diyl))bis(2-(2-(hydroxymethyl)phenyl)acetamide)], the pIC50 in data set [2] (setting [5]) was 6.48.

In the case of `Cc1cccc(CC(=O)Nc2nnc(CCCCc3nnc(NC(=O)Cc4cccc(C)c4)s3)s2)c1` [Compound 248], the pIC50 in data set [2] (setting [6]) was 5.64.

With `O=C(Cc1ccccc1Cl)Nc1nnc(CCCCc2nnc(NC(=O)Cc3ccccc3Cl)s2)s1` [Compound 256], the pIC50 in data set [2] (setting [5]) is 6.96.

Consider `O=C(Cc1ccccc1)Nc1nnc(CCCCc2nnc(NC(=O)Cc3ccccc3)o2)o1` [Compound 305], for which the pIC50 in data set [2] (setting [5]) is under 4.70.

Turning to `COc1cccc(-c2cccc(CC(=O)Nc3nnc(CCCCc4nnc(NC(=O)Cc5cccc(-c6cccc(OC)c6)c5)s4)s3)c2)c1` [Compound 328], the pIC50 in data set [2] (setting [6]) is under 4.70.

Consider `O=C(Cc1ccccc1)Nc1ccc(CCCCc2nnc(NC(=O)Cc3ccccn3)s2)nn1` [Compound 354], for which the efflux ratio (as a rule, a quotient of directional permeabilities that is used to spot active efflux) at 120 min, 1 µM in data set [3] was 33.

For the compound `CCCC(=O)OC(C(=O)Nc1nnc(CCCCc2ccc(NC(=O)Cc3ccccc3)nn2)s1)c1cccc(Cl)c1` (centres unmarked) [Compound 439], the pIC50 in data set [4] is 6.60.

For `O=C(Cc1ccccc1)Nc1nnc(CCCCc2nnc(NC(=O)Cc3ccccc3)o2)o1` [Compound 637], in data set [2] (read-out: GAC Delta N2 IC50 no), the pIC50 is under 4.70.
